Source: ChEMBL document CHEMBL1938329, “The discovery of potent, selective, and orally active pyrazoloquinolines as PDE10A inhibitors for the treatment of Schizophrenia” (Bioorg Med Chem Lett, 2012)

Sequences of proteins named here, by UniProt entry; tags and fusion partners are left off. A change or cut given only in a name is not applied to a line headed by its entry.
UniProt Q9Y233: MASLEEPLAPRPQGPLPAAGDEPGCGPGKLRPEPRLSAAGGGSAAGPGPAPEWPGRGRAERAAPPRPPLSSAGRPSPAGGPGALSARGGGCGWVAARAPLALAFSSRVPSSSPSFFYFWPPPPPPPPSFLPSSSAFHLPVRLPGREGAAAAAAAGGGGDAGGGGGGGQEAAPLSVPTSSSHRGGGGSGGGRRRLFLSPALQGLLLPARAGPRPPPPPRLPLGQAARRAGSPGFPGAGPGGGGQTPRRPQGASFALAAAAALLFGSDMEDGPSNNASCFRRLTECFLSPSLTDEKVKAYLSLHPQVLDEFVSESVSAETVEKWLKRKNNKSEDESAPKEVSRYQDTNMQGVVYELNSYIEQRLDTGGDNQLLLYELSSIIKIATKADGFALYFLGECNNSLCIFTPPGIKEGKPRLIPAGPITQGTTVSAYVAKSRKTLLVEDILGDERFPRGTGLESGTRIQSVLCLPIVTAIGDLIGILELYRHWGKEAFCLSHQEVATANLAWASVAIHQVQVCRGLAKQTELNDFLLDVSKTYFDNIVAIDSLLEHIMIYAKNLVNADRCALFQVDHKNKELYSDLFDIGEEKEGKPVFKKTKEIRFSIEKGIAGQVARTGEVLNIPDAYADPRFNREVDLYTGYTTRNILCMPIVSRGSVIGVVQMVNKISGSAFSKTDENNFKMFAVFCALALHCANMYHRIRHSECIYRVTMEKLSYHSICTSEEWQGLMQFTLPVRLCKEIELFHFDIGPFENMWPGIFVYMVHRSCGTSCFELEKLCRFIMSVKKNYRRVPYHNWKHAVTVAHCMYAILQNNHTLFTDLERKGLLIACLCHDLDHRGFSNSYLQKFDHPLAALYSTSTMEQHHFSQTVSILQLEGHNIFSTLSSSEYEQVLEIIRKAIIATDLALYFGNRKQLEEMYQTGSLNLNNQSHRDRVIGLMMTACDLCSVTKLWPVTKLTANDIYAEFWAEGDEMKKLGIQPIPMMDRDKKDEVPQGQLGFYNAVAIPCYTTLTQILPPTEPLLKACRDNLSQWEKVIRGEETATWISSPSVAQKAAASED

Tests used:
Homo sapiens [1] = species on record: Homo sapiens; test: Selectivity ratio of Ki for recombinant human PDE8 to Ki for recombinant human PDE10A
Summary of the method: (§1)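 Recombinant human PDE enzymes (PDE1–11) were tested in a scintillation proximity assay with [³H]cAMP as substrate, measuring hydrolysis of cAMP to AMP. Ki values are means of at least two experiments. The ratio is the Ki for each off-target PDE divided by the PDE10A Ki.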

Homo sapiens [2] = species on record: Homo sapiens; test: Selectivity ratio of Ki for recombinant human PDE7 to Ki for recombinant human PDE10A; summary of the method: as §1
Homo sapiens [3] = species on record: Homo sapiens; test: Selectivity ratio of Ki for recombinant human PDE4 to Ki for recombinant human PDE10A; summary of the method: as §1
Homo sapiens [4] = species on record: Homo sapiens; test: Selectivity ratio of Ki for recombinant human PDE5A to Ki for recombinant human PDE10A; summary of the method: as §1
Homo sapiens [5] = species on record: Homo sapiens; test: Selectivity ratio of Ki for recombinant human PDE2 to Ki for recombinant human PDE10A; summary of the method: as §1
Homo sapiens [6] = species on record: Homo sapiens; test: Selectivity ratio of Ki for recombinant human PDE1 to Ki for recombinant human PDE10A; summary of the method: as §1
[7] = biological target: cAMP and cAMP-inhibited cGMP 3',5'-cyclic phosphodiesterase 10A (Homo sapiens, UniProt Q9Y233); test: Inhibition of recombinant human PDE10A using [3H]cAMP as substrate by scintillation proximity assay
Summary of the method: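 Scintillation proximity assay with [³H]cAMP as substrate, measuring hydrolysis of cAMP to AMP by recombinant human PDEs 1–11. Ki values are means of at least two experiments.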

Homo sapiens [8] = species on record: Homo sapiens; test: Selectivity ratio of Ki for recombinant human PDE9 to Ki for recombinant human PDE10A; summary of the method: as §1
Homo sapiens [9] = species on record: Homo sapiens; test: Selectivity ratio of Ki for recombinant human PDE11 to Ki for recombinant human PDE10A; summary of the method: as §1
Homo sapiens [10] = species on record: Homo sapiens; test: Selectivity ratio of Ki for recombinant human PDE3 to Ki for recombinant human PDE10A; summary of the method: as §1
Homo sapiens [11] = species on record: Homo sapiens; test: Selectivity ratio of Ki for recombinant human PDE6 to Ki for recombinant human PDE10A; summary of the method: as §1

Ratio Ki (Homo sapiens [1]): > 70 | Ratio Ki (Homo sapiens [2]): > 70 | Ratio Ki (Homo sapiens [3]): > 70 | Ratio Ki (Homo sapiens [4]): > 70 | Ratio Ki (Homo sapiens [5]): > 70 | Ratio Ki (Homo sapiens [6]): > 70 | IC50 [7]: 0.858 µM | Ki [7]: 0.011 µM | Ratio Ki (Homo sapiens [8]): > 70 | Ratio Ki (Homo sapiens [9]): > 70 | Ratio Ki (Homo sapiens [10]): > 70 | Ratio Ki (Homo sapiens [11]): > 70
SMILES: COc1cc(C)c2nc3[nH]nc(C)c3c(N3CCNCC3)c2c1
